Assay results from patent US10065957B2, “Beta-lactamase inhibitors” (Novartis AG, priority 2016, dated 2018).

Test system: E. coli (KPC-2)
Conditions: ceftazidime alone

Substance: Ceftazidime
- MIC of ceftazidime: 4 µg/mL
